Results on one molecule are retold here after patent publication US5955508A, “Method for the enhancement of lymphocyte activity against opportunistic microbial pathogens” (priority 1996, dated 1999).

A short description of series [1]: Plasma d-FEN and d-norFEN levels and half-life in mice. Type of series: in vivo. The following applies: mouse; d-FEN p.o. in drinking water; sacrificed 11:00-13:00 h. An excerpt: Drug Plasma Levels. At the time of sacrifice, serum was collected by cardiac puncture, the plasma separated and frozen, then air expressed to Dr. Bruce Campbell (Servier UK) for analysis of d-FEN and d-norFEN levels.
Plasma d-FEN and d-norFEN Levels. […] This absence of drug and metabolite detectability may not only be due to the low oral dose of d-FEN employed but to the time of sacrifice. Mice like rats are prandial drinkers during the dark period of the light-dark cycle. The animals were sacrificed between 11:00 and 13:00 h, 4-6 h after the end of the dark period. Since the t1/2s of d-FEN and d-norFEN in the mouse are 4 and 6 h, respectively, by the time of sacrifice the plasma concentrations had likely fallen below the levels of assay detectability.

The conditions of series [2]: mouse; cited from earlier work.
The conditions of series [3]: oral administration; cited from earlier work.

For the molecule `CCN[C@@H](C)Cc1cccc(C(F)(F)F)c1` [d-FEN], the “plasma d-FEN and d-norFEN levels at sacrifice” value in series [1] is “Neither d-FEN nor d-norFEN was detected”. Also, the t1/2 in series [2] is recorded as 4 h. Besides, the bioavailability result in series [3] is on record as “approximately 68%”.
